## Yeast mating assay B: variants of the scFv Ab-14

From the AlphaSeq antibody data of Li et al. 2023 (doi:10.1038/s41467-023-39022-2), copy in the FLAb collection.

Antigen: PDVDLGDISGINAS, a 14-residue peptide of the SARS-CoV-2 spike HR2 region.

Each scFv is VH, a (GGGGS)3 linker, VL, as in the parent Ab-14, and differs from it in the CDRs of the light chain only.
VH: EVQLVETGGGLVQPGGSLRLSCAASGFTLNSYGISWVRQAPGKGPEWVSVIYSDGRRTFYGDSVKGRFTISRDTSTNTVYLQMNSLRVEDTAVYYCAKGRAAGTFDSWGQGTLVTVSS
VL: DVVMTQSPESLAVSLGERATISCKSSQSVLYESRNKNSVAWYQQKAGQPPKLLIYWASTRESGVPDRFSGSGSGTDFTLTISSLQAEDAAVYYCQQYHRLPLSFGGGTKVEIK

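The starting antibody came from a phage panning campaign against this peptide. This is the validation round: designs drawn from the data on random variants, tested in the same kind of assay. Group labels follow the data file (Ctrl: baseline library sampled from a position-specific scoring matrix, with some repeated check sequences; Rand: our label for a block that the file lists under HC and that is probably the random mutants of the ten best first-round binders; GP: Gaussian process model; HC: hill climbing; Gen: genetic algorithm; Gibbs: Gibbs sampling; a sequence that several methods proposed may carry one label only). The scFvs were displayed on barcoded MATa yeast, the peptide on MATalpha yeast. The frequency of each diploid, read from paired DNA barcodes, reflects how well the two displayed proteins bind. Scores were corrected for input abundance and mapped to Kd with protein pairs of known affinity run in the same pool. There are six technical replicates.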

Variants are written as CDR1, CDR2 and CDR3 of the light chain (limits as in the source). Parent: KSSQSVLYESRNKNSVA, WASTRES, QQYHRLPLS. This list holds designs with at most six substitutions. Kd is apparent (estimated from mating counts) and averaged on the log scale over replicates with a signal. Smaller is tighter. Where no diploid with the target was found in any replicate, the entry reads "no signal": below detection, most likely a poor binder, though not proof of it. The range of this assay differs from that of the first round, and the authors advise against merging the two. The authors averaged sequences with at least three values out of six and counted those with two or fewer as poor binders. Nonspecific signal, from three strains lacking the peptide, appeared in 4% of pairings of all light chain designs, centred on 430 nM (5% of these signals below 38 nM); values are not corrected for it.

The variant KLSQSVLYEMRNKNSVA / EASTRES / QQYHRLPLS [GP_Gen] showed 990 pM (6 of 6 replicates). The variant KSSQSVLYESRWKNSVA / HASTRES / QQYHRLPLS [Ctrl] gave 82 nM (6 of 6 replicates). The variant KSSQSVLYESRNKNSVA / WATKRES / QQYHRLPTS [Ctrl] showed no signal (0 of 6 replicates). With KLPQSMLYESRNKNSVA / SASTRES / QQYHRLPLS [GP_Gen] the result was 340 pM (6 of 6 replicates). For KVMQSVPYESRNKNSVA / EASTRES / QQYHRLPLS [GP_Gen], the assay gave 820 pM (6 of 6 replicates). The variant VLSQSVLYESRNKNSVA / NASQRES / QQYHRLPLS [GP_Gen] showed 620 pM (6 of 6 replicates).

The variant KLEQSFLYESRNKNSVA / EASTRES / QQYHRLPLS [GP_Gen] gave 750 pM (6 of 6 replicates). With KLSQSSLYESRNKNSVA / NASQRES / QQYHRLPLS [GP_Gen] the result was 670 pM (6 of 6 replicates). With KESQSVLKESTEKNSVA / WASTLES / NQYHRLPLS [Ctrl] the result was no signal (0 of 6 replicates). The variant KSSQSVLFESRNKNSVA / DASFRES / SQYHRLPLS [Rand] showed 22 nM (6 of 6 replicates). The variant KLPQSMQYESRNKNNVA / SASTRES / QQYHRLPLS [GP_Gibbs] showed 230 pM (6 of 6 replicates). For KSSQSWGYESRNKNSVA / NASTRES / QQYHRLPLS [GP_HC], the assay gave 840 pM (6 of 6 replicates).

The variant KLPQSQLYESRNKNSVA / HASQRES / QQYHRLPLS [GP_Gen] showed 870 pM (6 of 6 replicates). The variant HSSQGWLYESRNKNSVA / GASTRED / QQYHRLPLS [GP_HC] showed 470 pM (6 of 6 replicates). The variant KSQQSFLYESRNFNSVA / EASTRES / QQYHRLPLS [GP_HC] gave 1.5 nM (6 of 6 replicates). With KSSQSVLYESLNKYSVA / WASTRES / QQYHRLPLS [Ctrl] the result was 33 nM (5 of 6 replicates). The variant KLSQSVLYESRNKNSVA / EASTREK / QQYHRLPLS [GP_Gen] showed 970 pM (6 of 6 replicates). The variant KMPQSYLYESRNKNSVA / NASQRES / QQYHRLPLS [GP_Gen] showed 470 pM (6 of 6 replicates).

With KSSQSVLYEERNKNSVA / DASTREQ / QQYNRLPDS [Ctrl] the result was 80 nM (2 of 6 replicates). The variant KIEQSWLYESRNKNSVA / NASQRES / QQYHRLPLS [GP_Gen] showed 670 pM (6 of 6 replicates). For KSSQSLLYESRNKNSVA / AASTRES / QQYHRLPLS [Ctrl], the assay gave 1.5 nM (6 of 6 replicates). For KLQQSELYESRMKNSVA / NASQRES / QQYHRLPLS [GP_Gen], the assay gave 3.7 nM (6 of 6 replicates). The variant KSSQSFLYESRNFNSVA / HASTRES / QQYHRLPLS [GP_HC] gave 2.3 nM (6 of 6 replicates). With KFSQSVLYEDRNKNNVA / NASQRES / QQYHRLPLS [GP_Gen] the result was 1.4 nM (6 of 6 replicates).

The variant KSSQSVLYESRNKNSVA / WASVRES / QQPHYLPLS [Ctrl] gave 74 nM (1 of 6 replicates). With KQSQSVLYESRNKNSVA / DASTRLS / QQYHRLPLS [GP_HC] the result was 870 pM (6 of 6 replicates). The variant KSSESVLYESRNKNSVA / WDSTRVS / QQYHRMPLS [Ctrl] gave 8.4 nM (6 of 6 replicates). For KSSQSVLYEGRNKNSVA / WASTRVS / QQYHRLPLS [Ctrl], the assay gave 38 nM (6 of 6 replicates). The variant KLPQSVLYESRDKNSVA / HASTRED / QQYHRLPLS [GP_HC] gave 880 pM (6 of 6 replicates). The variant KVSQSVLYESRNKSSVA / WASTRES / QQYHRIPLS [Ctrl] gave 1.1 µM (2 of 6 replicates).

The variant KQSQSDLYESRNKNSVA / NASTRES / QQYHRLPLS [GP_HC] gave 1.3 nM (6 of 6 replicates).